Measured values as given in PMC12406203 (Journal of Medicinal Chemistry, 2025).

Amino acid sequences for entries named in this document (tags omitted). Residues count along the entry.
UniProt P06276, 29-602: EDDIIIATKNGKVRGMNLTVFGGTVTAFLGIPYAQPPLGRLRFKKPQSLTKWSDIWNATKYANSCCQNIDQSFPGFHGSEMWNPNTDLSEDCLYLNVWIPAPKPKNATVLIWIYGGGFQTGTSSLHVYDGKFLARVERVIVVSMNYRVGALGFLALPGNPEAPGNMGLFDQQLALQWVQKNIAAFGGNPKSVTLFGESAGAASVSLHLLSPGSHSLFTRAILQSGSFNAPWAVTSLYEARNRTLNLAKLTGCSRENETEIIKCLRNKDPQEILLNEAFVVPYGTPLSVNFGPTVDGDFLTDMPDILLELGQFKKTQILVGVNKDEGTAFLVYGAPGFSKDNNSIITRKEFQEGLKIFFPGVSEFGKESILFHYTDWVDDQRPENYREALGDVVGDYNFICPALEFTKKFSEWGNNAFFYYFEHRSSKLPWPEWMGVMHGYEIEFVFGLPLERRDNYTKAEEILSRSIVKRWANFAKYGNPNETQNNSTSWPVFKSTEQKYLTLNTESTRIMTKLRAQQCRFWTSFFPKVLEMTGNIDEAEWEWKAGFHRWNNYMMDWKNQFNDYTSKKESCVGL

Target: hBChE (Homo sapiens, UniProt P06276)
Settings: residual activity at 100 μM; mean ± SD, one experiment in triplicate

## CC(C)Cn1ncc2cc(Oc3ccc(F)cc3F)c(C(=O)NCCN(C)C)cc21 [Compound 72, 5-(2,4-Difluorophenoxy)-N-(2-(dimethylamino)ethyl)-1-isobutyl-1H-indazole-6-carboxamide, reference compound]
  hBChE RA at 100 μM: 9%
